Literature values, collected in patent US20190336490A1, “COMPOSITIONS AND METHODS FOR INCREASING REMYELINATION” (Frequency Therapeutics, Inc., priority 2018, published 2019).
Some compounds may have been tested in ways that are not shown here.

Amino acid sequences for entries named in this document (tags omitted).
UniProt P11229, whole entry: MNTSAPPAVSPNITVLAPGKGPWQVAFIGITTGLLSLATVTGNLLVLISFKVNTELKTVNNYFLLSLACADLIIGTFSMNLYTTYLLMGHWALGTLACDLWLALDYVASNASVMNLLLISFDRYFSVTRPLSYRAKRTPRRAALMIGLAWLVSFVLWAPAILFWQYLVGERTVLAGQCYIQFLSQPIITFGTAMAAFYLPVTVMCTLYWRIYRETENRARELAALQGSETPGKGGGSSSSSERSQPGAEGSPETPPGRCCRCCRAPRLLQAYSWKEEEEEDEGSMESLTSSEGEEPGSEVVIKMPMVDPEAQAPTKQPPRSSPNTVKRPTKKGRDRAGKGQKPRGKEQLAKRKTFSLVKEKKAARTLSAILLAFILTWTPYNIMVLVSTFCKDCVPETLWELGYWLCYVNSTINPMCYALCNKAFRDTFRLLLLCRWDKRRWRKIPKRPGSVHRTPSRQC

Molecular target: muscarinic M1 receptor (Homo sapiens, UniProt P11229)
Conditions: cited from earlier work

SMILES: CC(C)N1CCC(N(C(=O)Cc2ccccc2)c2ccc(Cl)cc2)CC1
- In vitro M1 (Conc): <10 µM
